Earlier results on one substance are cited in patent publication US20070031341A1, “Methods of delivering therapeutics to the brain” (priority 2005, published 2007).

The test system of this series is cerebellar granule cells exposed to MPP+ neurotoxin. Particulars: 50 U/ml catalase; about 50% without; cited from earlier work.

catalase: the “in vitro viability of cerebellar granule cells exposed to MPP+” value is “about 75%”.
